Reference: patent US20100113334A1, “METHODS FOR REDUCING OR PREVENTING TRANSMISSION OF NOSOCOMIAL PATHOGENS IN A HEALTH CARE FACILITY” (priority 2003, published 2010)

## Ramoplanin
100 μg/ml dose, day 7 of treatment, n=5 mice
  mean concentration in stool: 188 μg/g of stool
300 μg/ml dose, day 7, n=5 mice
  mean concentration in stool: 310 µg/mL

Read-outs that look alike come from different tables or passages of the source.
